Assay results from publication PMC8533642 (Journal of medicinal chemistry, 2021).

Protein sequences, listed by entry. Tags and fused reporters are not part of them.
UniProt P56450, whole entry: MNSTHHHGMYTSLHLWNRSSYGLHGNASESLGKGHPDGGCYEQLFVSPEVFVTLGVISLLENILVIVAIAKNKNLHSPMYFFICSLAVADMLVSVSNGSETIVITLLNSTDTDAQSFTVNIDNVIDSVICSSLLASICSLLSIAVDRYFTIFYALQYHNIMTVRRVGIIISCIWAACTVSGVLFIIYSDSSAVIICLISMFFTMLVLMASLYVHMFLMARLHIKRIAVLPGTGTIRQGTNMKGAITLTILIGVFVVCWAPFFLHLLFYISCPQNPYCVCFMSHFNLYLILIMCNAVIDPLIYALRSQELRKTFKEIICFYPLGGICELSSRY

Target: mMC4R (Mus musculus, UniProt P56450)
Conditions: mMC4R versus mMC3R antagonist potency

## CC(=O)N[C@H](Cc1ccc(I)cc1)C(=O)N[C@@H](CCCNC(=N)N)C(=O)N[C@@H](Cc1ccc2ccccc2c1)C(=O)N[C@@H](CCCNC(=N)N)C(N)=O [Peptide 48, Ac-DPhe(pI)-Arg-Nal(2’)-Arg-NH2]
  selectivity for the mMC4R over the mMC3R (antagonist): 15 fold
